Test results: patent publication EP4821496A1, “USE OF BENZO NITROGEN-CONTAINING HETEROAROMATIC RING DERIVATIVE IN TREATING COMPLEMENT FACTOR B-MEDIATED DISEASE” (dated 2026)

Amino acid sequences for entries named in this document (tags omitted). Residues count along the entry.
UniProt P00751, 260-764 limits assumed: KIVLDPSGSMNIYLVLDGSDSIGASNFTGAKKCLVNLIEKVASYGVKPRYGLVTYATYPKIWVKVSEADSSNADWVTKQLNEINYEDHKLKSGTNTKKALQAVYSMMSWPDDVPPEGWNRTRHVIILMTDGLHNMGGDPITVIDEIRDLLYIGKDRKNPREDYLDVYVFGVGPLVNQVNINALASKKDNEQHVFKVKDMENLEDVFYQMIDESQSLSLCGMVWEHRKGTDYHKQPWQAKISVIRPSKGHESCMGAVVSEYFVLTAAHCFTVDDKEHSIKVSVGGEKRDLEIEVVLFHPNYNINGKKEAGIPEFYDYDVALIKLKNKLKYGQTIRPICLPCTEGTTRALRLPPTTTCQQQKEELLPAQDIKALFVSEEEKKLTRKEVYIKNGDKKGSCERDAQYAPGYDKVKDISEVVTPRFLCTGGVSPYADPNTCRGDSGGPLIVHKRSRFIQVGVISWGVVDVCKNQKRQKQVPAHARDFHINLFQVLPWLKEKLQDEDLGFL
UniProt Q91132, 23-649 partner limits assumed: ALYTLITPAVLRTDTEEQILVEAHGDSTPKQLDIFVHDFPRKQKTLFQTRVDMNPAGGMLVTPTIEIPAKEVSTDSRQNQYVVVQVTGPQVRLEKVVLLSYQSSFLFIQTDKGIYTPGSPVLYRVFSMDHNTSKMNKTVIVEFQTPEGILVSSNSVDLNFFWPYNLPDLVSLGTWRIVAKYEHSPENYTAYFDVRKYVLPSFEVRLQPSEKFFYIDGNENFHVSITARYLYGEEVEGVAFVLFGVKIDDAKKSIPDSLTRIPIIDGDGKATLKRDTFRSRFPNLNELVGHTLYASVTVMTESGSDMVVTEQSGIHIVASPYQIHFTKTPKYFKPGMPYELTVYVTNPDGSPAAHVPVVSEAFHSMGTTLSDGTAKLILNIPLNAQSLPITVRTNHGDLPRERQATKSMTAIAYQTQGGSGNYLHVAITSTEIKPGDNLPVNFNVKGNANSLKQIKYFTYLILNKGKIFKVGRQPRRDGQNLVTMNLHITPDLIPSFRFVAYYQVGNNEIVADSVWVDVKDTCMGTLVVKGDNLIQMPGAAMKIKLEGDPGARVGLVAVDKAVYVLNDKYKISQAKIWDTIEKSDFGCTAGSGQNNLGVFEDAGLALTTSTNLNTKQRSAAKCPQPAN
UniProt Q91132, 733-984 partner limits assumed: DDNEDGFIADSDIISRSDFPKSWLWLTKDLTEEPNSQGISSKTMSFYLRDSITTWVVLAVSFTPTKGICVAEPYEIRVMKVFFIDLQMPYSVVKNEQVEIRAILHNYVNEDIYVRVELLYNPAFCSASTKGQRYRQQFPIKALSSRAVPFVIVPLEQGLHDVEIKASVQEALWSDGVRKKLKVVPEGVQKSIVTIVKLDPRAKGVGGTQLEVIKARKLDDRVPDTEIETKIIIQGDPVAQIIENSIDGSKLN
UniProt Q91132, 1264-1642 partner limits assumed: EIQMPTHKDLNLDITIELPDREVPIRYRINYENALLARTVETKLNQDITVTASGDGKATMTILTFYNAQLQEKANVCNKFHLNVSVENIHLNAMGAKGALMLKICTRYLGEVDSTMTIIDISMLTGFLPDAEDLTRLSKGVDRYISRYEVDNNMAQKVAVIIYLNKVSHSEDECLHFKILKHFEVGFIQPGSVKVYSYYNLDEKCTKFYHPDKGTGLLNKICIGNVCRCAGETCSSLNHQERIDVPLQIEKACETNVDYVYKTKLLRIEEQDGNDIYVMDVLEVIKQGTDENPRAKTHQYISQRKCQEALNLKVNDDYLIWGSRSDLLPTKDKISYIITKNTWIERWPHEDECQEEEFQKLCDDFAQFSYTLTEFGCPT

Legend:
[1] = system: BSA-induced IgA nephritis; experiment: Rat model of BSA-induced IgA nephritis; conditions: rats
human complement FB = human complement FB (Homo sapiens, UniProt P00751); experiment: Effect on the enzymatic activity of complement factor B in vitro (CVFBb complex, C3a ELISA); conditions: CVFBb complex (C3 convertase), C3 substrate, C3a quantified by ELISA
[2] = biological target: complement alternative pathway (AP) (Homo sapiens, UniProt P00751); experiment: Inhibition of alternative pathway (AP) deposition in human serum (WIESLAB AP kit, C5b-9 yield)
[3] = system: Fx1A-induced Heymann nephritis; experiment: Anti-serum Fx1A-induced passive Heymann nephritis in rats; conditions: rats, 20, 60 and 120 mg/kg

[2H]C([2H])([2H])Oc1cc(C)c2[nH]ccc2c1CN1CC[C@@H](C2CC2)C[C@H]1c1ccc(C(=O)O)cc1
renal C3 deposition ([1]; 60 mg/kg, superior to LNP023 at the same dose, Figure 8): inhibited C3 deposition in rat kidneys | serum C5b-9 deposition ([1]; 20 and 60 mg/kg, experimental endpoint, Figure 6): inhibited serum C5b-9 deposition in rats in a dose-dependent manner | serum IgA level ([1]; 20 and 60 mg/kg, superior to LNP023 at the same doses, Figure 7): significantly reduced the content of IgA | IC90 (human complement FB): 140 nM | Inh%@Max dose ([2]; Max dose 5000 nM): 99.6% | IC90 ([2]; human serum diluted 30-fold, 37°C 60 minutes, C5b-9 yield): 51.6 nM | renal pathology ([3]; dose-dependent, Figure 4): reduced renal tubular injury, renal fibrosis, renal interstitial inflammation, and total renal pathological scores | activity of the serum complement marker AP ([3]; twice daily, Figure 3): inhibited the activity of the serum complement marker AP in rats in a dose-dependent manner
